From US20240166617A1, “PHOSPHOINOSITIDE 3 KINASE BETA INHIBITORS AND COMPOSITIONS AND METHODS THEREOF” (Geode Therapeutics Inc., priority 2021, published 2024)

Amino acid sequences for entries named in this document (tags omitted).
UniProt P42338, whole entry: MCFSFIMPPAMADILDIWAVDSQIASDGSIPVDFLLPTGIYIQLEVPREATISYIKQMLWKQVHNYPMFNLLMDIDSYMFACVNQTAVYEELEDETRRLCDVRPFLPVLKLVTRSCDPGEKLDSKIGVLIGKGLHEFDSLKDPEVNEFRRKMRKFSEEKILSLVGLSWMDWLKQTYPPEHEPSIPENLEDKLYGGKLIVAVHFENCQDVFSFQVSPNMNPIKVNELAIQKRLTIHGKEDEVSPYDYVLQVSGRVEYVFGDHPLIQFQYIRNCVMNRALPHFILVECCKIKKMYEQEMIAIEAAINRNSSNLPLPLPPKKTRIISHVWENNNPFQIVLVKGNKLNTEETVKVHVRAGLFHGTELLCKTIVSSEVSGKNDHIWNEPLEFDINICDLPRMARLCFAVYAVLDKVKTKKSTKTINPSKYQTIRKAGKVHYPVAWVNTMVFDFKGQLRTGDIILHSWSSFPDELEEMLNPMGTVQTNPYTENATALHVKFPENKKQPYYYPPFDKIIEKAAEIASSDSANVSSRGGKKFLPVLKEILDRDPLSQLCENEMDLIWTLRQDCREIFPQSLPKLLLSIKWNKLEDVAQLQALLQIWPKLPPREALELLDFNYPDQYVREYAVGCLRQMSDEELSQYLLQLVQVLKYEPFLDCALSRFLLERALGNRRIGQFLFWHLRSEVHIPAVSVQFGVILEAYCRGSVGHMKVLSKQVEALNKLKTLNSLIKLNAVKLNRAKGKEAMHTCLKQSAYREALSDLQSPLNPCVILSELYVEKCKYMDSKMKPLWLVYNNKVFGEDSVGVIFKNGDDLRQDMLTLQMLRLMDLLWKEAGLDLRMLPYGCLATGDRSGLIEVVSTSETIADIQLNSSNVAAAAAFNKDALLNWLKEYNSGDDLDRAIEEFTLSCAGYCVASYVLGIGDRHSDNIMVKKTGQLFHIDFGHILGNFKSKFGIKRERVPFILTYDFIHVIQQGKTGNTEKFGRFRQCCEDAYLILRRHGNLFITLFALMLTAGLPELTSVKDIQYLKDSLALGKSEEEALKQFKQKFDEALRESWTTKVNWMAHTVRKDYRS
UniProt P48736, whole entry: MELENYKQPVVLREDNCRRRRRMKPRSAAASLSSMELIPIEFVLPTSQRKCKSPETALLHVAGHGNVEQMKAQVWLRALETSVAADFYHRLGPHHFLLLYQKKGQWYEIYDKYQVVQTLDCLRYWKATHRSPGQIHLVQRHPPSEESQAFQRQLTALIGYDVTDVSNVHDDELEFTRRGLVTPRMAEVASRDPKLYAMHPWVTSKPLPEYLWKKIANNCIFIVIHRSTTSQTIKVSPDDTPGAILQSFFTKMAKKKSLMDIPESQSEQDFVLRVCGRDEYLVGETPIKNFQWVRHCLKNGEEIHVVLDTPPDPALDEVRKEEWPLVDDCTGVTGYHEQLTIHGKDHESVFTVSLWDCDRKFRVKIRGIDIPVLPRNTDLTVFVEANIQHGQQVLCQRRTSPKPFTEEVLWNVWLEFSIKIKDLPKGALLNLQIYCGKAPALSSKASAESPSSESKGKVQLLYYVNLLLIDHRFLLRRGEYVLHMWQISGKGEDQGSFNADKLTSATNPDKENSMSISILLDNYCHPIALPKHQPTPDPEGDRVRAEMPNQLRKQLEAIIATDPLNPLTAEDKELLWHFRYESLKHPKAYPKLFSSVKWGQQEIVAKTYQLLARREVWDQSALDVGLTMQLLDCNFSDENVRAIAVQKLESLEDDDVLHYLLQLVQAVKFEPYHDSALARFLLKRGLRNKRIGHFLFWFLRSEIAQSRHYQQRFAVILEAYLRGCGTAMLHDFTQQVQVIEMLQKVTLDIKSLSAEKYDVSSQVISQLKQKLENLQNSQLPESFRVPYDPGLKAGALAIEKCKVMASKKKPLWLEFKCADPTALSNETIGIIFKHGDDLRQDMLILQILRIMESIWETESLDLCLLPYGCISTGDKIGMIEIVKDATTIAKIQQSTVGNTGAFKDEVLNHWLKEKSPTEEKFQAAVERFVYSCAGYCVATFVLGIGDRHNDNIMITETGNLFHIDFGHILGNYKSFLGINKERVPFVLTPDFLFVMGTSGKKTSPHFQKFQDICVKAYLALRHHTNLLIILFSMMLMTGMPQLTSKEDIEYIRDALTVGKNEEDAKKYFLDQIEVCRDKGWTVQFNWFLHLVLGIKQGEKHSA
UniProt P42336, whole entry: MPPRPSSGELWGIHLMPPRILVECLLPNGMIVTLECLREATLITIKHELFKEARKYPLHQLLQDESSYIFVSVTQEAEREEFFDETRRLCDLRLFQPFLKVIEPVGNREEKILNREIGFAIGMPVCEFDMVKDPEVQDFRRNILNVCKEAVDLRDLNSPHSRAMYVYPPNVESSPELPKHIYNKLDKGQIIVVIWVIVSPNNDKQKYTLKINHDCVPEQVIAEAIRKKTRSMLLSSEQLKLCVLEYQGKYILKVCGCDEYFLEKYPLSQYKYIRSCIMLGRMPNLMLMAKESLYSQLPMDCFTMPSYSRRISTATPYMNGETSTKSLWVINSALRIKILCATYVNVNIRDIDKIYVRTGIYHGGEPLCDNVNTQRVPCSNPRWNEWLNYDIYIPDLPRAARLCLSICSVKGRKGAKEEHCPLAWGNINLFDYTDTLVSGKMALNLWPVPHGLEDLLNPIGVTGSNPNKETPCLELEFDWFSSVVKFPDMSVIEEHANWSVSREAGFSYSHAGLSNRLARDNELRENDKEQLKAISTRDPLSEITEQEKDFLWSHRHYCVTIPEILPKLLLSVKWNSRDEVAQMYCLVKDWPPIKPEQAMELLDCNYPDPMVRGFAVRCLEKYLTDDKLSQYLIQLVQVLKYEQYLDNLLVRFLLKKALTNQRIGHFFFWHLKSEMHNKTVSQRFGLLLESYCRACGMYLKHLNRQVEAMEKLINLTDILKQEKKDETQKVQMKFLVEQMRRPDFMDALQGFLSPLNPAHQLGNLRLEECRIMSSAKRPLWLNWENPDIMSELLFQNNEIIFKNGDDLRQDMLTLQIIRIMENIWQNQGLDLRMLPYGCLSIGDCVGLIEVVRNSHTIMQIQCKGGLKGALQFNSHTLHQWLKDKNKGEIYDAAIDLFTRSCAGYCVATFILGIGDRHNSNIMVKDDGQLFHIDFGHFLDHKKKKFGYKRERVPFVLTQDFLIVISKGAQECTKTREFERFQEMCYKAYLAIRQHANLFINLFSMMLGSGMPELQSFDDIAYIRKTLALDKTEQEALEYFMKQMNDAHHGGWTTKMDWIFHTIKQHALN
UniProt O00329, whole entry: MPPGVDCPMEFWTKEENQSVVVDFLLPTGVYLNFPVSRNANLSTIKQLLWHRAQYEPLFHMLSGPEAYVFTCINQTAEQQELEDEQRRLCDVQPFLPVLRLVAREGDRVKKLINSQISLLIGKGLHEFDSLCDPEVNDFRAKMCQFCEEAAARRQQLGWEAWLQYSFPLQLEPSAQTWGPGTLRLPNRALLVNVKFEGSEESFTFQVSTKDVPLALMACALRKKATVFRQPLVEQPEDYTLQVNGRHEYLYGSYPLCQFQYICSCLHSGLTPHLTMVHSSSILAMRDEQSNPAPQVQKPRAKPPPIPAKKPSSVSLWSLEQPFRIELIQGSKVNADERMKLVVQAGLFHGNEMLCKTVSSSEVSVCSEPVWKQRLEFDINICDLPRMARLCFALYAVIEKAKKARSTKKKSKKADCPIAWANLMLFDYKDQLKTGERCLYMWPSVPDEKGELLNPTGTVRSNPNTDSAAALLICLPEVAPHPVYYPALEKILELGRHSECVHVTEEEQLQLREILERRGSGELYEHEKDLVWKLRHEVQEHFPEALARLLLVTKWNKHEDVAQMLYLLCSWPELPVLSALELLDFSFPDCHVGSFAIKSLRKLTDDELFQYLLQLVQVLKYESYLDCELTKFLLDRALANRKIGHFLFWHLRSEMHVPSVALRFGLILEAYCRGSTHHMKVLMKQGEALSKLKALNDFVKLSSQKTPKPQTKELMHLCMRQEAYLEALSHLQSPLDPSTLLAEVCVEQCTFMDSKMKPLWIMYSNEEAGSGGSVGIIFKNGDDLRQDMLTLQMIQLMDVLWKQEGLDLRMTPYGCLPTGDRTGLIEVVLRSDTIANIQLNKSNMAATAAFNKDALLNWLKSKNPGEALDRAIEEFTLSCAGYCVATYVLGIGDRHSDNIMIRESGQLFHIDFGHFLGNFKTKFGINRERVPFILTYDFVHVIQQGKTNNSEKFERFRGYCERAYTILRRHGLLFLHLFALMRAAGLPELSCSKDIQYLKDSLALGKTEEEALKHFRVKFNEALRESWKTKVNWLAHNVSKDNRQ

Legend:
Experiment in all cases: Enzyme binding assay (KINOMEscan)
[1] = molecular target: PIK3Cb_h (Homo sapiens, UniProt P42338); details: read-out: Kd (nM) PIK3Cb_h, Eurofins DiscoveRx
[2] = molecular target: PIK3Cg_h (Homo sapiens, UniProt P48736); details: read-out: Kd(nM) PIK3Cg_h, Eurofins DiscoveRx
[3] = molecular target: PIK3Ca_h (Homo sapiens, UniProt P42336); details: read-out: Kd(nM) PIK3Ca_h, Eurofins DiscoveRx
[4] = molecular target: PIK3Cd_h (Homo sapiens, UniProt O00329); details: read-out: Kd(nM) PIK3Cd_h, Eurofins DiscoveRx

Kd [1]: 740 nM
Kd [2]: > 10000 nM
Kd [3]: > 10000 nM
Kd [4]: > 10000 nM
SMILES: CC(Nc1cc(F)cc(F)c1)c1cc(C(=O)N2CCC(N(C)C)C2)cn2c(=O)cc(N3CCOCC3)nc12 (stereo not shown)
